Earlier results on one substance are cited in publication PMC4266533, “Kinetics of the early events of GPCR signalling” (Febs Letters, 2014).

Amino acid sequences for entries named in this document (tags omitted).
UniProt P20789, whole entry: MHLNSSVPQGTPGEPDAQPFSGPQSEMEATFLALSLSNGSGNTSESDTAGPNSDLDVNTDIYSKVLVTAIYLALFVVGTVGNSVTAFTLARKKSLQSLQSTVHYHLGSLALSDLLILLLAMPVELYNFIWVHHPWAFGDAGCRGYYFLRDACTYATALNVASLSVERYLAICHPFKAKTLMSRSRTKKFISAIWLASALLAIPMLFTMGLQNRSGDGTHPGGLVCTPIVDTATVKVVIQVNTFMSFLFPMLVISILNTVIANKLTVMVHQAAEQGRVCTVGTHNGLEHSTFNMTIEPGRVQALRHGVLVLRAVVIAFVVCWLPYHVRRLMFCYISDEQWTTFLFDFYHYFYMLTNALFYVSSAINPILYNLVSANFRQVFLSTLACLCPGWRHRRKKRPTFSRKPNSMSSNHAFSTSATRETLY

This series has as its target Neurotensin (Homo sapiens). The following applies: cited from earlier work.

One may read the Kd as a measure of binding affinity in units of concentration. Take NTS1 (from UniProt P20789): the Kd is 1 nM.
